One test relates to A549. Briefly: Antimigratory activity against human A549 cells assessed as decrease in cell migration after 12 hrs by wound healing assay. It is filed as functional, cell-based.
The subject of the next test is NCI-H1299. Nature of the test: Antimigratory activity against human H1299 cells assessed as decrease in cell migration after 12 hrs by wound healing assay. It is filed as functional, cell-based.

The structures appear in SMILES notation.

On to `O=C(Cc1ccccc1)N1CCc2c([nH]c3ccccc23)C1`, for which the Activity result in the test on A549 and in the test on NCI-H1299 was “Dose-dependent effect” in each case.
